Assay [1] deals with T1, Vasopressin V1b receptor (Homo sapiens) (UniProt P47901).
T1 sequence (whole entry): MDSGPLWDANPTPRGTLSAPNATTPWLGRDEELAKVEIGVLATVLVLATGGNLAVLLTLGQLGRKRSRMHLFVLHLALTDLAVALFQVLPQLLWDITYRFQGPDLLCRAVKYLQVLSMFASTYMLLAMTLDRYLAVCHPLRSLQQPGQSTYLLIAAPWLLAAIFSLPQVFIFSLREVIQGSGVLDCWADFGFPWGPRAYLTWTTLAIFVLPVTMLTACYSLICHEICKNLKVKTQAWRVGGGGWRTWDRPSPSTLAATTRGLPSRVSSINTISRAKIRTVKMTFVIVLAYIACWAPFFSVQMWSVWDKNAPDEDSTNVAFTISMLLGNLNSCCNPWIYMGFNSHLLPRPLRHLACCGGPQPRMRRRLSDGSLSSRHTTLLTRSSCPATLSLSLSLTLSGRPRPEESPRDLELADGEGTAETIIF
Briefly: Antagonist activity at human AVPR1b expressed in U2OS cells at 30 uM by gpcrSCAN assay. Format: cell-based. Conditions: filed as antagonist.

Protein sequences, listed by entry. Tags and fused reporters are not part of them. Lines headed by an entry give the natural chain unless they say otherwise; changes in a name come on top.
UniProt Q9H1C0: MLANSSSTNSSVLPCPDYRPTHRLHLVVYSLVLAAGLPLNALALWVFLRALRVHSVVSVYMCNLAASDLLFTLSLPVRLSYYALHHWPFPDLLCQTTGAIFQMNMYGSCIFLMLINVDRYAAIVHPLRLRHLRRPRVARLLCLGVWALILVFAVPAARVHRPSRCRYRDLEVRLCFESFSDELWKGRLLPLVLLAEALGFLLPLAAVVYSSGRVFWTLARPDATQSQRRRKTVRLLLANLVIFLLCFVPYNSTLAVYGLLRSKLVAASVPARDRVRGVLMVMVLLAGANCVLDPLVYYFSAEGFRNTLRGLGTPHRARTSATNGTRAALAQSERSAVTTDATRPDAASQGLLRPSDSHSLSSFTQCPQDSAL

Assay [2] has as its target Lysophosphatidic acid receptor 5 (Homo sapiens, UniProt Q9H1C0). Briefly: Antagonist activity at human LPA5 receptor at 10 uM relative to control. Format: functional.
The target in assay [3] is T2, Lysophosphatidic acid receptor 3 (Homo sapiens) (UniProt Q9UBY5).
T2 sequence (whole entry): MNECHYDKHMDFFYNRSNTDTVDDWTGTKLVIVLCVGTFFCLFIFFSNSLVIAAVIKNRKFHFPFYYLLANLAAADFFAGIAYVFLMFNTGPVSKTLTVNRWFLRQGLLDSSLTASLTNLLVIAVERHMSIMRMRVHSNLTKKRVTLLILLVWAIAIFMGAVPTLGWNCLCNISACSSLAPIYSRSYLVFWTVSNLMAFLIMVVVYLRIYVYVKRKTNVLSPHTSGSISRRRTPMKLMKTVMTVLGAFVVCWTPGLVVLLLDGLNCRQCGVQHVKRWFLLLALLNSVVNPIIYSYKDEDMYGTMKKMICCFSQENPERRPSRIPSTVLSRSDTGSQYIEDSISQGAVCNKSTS
The experiment in a line: Antagonist activity at human LPA3 receptor at 10 uM relative to control. It counts as functional. Conditions: filed as antagonist.

Usually inhibition stands for how much of the control response was suppressed.

`C[C@@H](OC(=O)Nc1c(-c2ccc(NC(=O)c3cnc(C(F)(F)F)nc3)cn2)nnn1C)c1cc(F)cnc1F`: the inhibition in assay [1] was found to be 63%; in assay [2], 35%; in assay [3], 69%.

The values are drawn from ChEMBL document CHEMBL6103545, “Discovery of GS-2278, a Potent and Selective LPAR1 Antagonist for the Treatment of Idiopathic Pulmonary Fibrosis” (J Med Chem, 2025).
